CycPeptMPDB entries from one study

PAMPA is the parallel artificial membrane permeability assay, which has no cells and reads passive diffusion. Caco-2: transport across a human colon carcinoma cell monolayer. Permeability is given as log10 of P in cm/s; higher (less negative) is more permeable. "–" marks a cell with nothing listed here.

| SMILES | PAMPA (log10 cm/s) | Caco-2 (log10 cm/s) |
|---|---|---|
| CC(C)C[C@@H]1NC(=O)[C@H](C)NC(=O)CCCCNC(=O)[C@H](Cc2ccccc2)NC1=O | -7.00 | -5.45 |
| CC(C)C[C@@H]1NC(=O)[C@H](C)NC(=O)CC[C@@H](C)CNC(=O)CN(Cc2ccccc2)C1=O | -6.68 | -4.67 |
| CC(C)C[C@@H]1NC(=O)[C@H](C)NC(=O)CCCCNC(=O)CN(Cc2ccccc2)C1=O | -7.18 | -4.74 |
| CC(C)C[C@@H]1NC(=O)CN(C)C(=O)CCCCNC(=O)[C@H](Cc2ccccc2)NC1=O | -7.43 | -5.32 |
| CC(C)C[C@@H]1NC(=O)[C@H](C)NC(=O)[C@@H](C)CCCNC(=O)[C@H](Cc2ccccc2)NC1=O | -6.64 | -5.12 |
| CC(C)C[C@]1(C)NC(=O)[C@H](C)NC(=O)[C@@H](C)CCCNC(=O)[C@H](Cc2ccccc2)NC1=O | -6.52 | – |
| CC(C)CN1CC(=O)N[C@@H](Cc2ccccc2)C(=O)N[C@H](C)CCCC(=O)N[C@@H](C)C1=O | -5.39 | -4.53 |
| CC(C)C[C@@H]1NC(=O)[C@H](C)NC(=O)C[C@@H](C)CCNC(=O)[C@H](Cc2ccccc2)NC1=O | -7.18 | -4.84 |
| CC(C)CN1CC(=O)N[C@@H](Cc2ccccc2)C(=O)NC[C@@H](C)CCC(=O)N[C@@H](C)C1=O | -5.66 | -4.69 |
| CC(C)C[C@@H]1NC(=O)[C@H](C)NC(=O)C[C@@H](C)CCNC(=O)CN(Cc2ccccc2)C1=O | -6.49 | -5.00 |
| CC(C)CN1CC(=O)N[C@@H](Cc2ccccc2)C(=O)NC[C@H](C)CCC(=O)N[C@@H](C)C1=O | -5.92 | -4.80 |
| CC(C)C[C@@H]1NC(=O)CCCCNC(=O)[C@H](Cc2ccccc2)NC(=O)CN(C)C1=O | -6.33 | – |
| CC(C)CN1CC(=O)N[C@@H](C)C(=O)N[C@@H](Cc2ccccc2)C(=O)NCCCCC1=O | -7.21 | – |
| CC(C)C[C@@H]1NC(=O)[C@H](C)NC(=O)CC[C@@H](C)CNC(=O)[C@H](Cc2ccccc2)NC1=O | -7.27 | -5.03 |
| CC(C)CN1CC(=O)N[C@@H](Cc2ccccc2)C(=O)NCCCCC(=O)N[C@@H](C)C1=O | -6.38 | -5.54 |
| CC(C)CN1CC(=O)N[C@@H](Cc2ccccc2)C(=O)NCCC[C@H](C)C(=O)N[C@@H](C)C1=O | -5.80 | -4.48 |
| CC(C)C[C@@H]1NC(=O)[C@H](C)NC(=O)C[C@H](C)CCNC(=O)CN(Cc2ccccc2)C1=O | -7.49 | -5.00 |
| CC(C)C[C@@H]1NC(=O)CN(C)C(=O)C[C@@H](C)CCNC(=O)[C@H](Cc2ccccc2)NC1=O | -6.92 | -5.15 |
| CC(C)C[C@@H]1NC(=O)[C@H](C)NC(=O)CC[C@H](C)CNC(=O)[C@H](Cc2ccccc2)NC1=O | -6.91 | -4.92 |
| CC(C)C[C@@H]1NC(=O)[C@H](C)NC(=O)[C@H](C)CCCNC(=O)CN(Cc2ccccc2)C1=O | -7.16 | -5.05 |
| CC(C)C[C@@H]1NC(=O)[C@H](C)NC(=O)C[C@H](C)CCNC(=O)[C@H](Cc2ccccc2)NC1=O | -6.75 | -4.94 |

3 of these entries, quoted again:

SMILES	PAMPA (log10 cm/s)	Caco-2 (log10 cm/s)
CC(C)C[C@@H]1NC(=O)[C@H](C)NC(=O)CCCCNC(=O)[C@H](Cc2ccccc2)NC1=O	-7.00	-5.45
CC(C)CN1CC(=O)N[C@@H](Cc2ccccc2)C(=O)NCCC[C@H](C)C(=O)N[C@@H](C)C1=O	-5.80	-4.48
CC(C)C[C@@H]1NC(=O)[C@H](C)NC(=O)C[C@@H](C)CCNC(=O)[C@H](Cc2ccccc2)NC1=O	-7.18	-4.84

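Conditions beyond the assay type are not listed; see the original paper. Other peptides of the study may be missing here. Peptides that the database sets to -10, its floor, are left out.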

Collected by the curators of CycPeptMPDB (Li et al. 2023) from Comeau et al. 2021, doi:10.1021/acs.jmedchem.0c02036.